Data as given in ChEMBL document CHEMBL5247614, “An overview of aryl hydrocarbon receptor ligands in the Last two decades (2002-2022): A medicinal chemistry perspective” (Eur J Med Chem, 2022).

Target: T1, Aryl hydrocarbon receptor (Homo sapiens, UniProt P35869)
T1 sequence (P35869 whole entry): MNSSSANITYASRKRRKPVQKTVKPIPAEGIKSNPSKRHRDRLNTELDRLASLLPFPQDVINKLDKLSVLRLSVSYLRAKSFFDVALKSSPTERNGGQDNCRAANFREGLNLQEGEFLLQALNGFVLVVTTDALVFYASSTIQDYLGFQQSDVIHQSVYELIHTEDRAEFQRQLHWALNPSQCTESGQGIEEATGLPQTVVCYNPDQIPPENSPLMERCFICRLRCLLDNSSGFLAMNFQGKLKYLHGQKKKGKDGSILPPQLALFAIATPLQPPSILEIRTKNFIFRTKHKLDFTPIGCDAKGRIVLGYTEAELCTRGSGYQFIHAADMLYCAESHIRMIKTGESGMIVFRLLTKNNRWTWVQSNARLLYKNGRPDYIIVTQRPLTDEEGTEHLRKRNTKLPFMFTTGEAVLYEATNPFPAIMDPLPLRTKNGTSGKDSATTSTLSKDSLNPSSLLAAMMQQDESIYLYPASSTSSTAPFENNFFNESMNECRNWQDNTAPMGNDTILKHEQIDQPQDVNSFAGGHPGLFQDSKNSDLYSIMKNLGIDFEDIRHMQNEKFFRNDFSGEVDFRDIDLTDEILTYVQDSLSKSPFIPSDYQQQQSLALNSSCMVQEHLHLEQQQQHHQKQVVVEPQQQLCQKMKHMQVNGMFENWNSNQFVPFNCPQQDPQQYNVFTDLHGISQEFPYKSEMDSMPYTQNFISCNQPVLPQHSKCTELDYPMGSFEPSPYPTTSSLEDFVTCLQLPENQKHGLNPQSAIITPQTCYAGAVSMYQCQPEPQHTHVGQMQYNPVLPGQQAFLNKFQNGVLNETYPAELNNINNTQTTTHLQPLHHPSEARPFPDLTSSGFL

Ki: 0.2 nM
SMILES: FC(F)(F)c1ccc(/C=C/c2cc(Cl)cc(Cl)c2)cc1
